Where a name gives a salt, the structure may show the parent alone.

Chains of the proteins cited; added tags and fusions are not shown. Residues count along the entry.
UniProt P56817, 46-501: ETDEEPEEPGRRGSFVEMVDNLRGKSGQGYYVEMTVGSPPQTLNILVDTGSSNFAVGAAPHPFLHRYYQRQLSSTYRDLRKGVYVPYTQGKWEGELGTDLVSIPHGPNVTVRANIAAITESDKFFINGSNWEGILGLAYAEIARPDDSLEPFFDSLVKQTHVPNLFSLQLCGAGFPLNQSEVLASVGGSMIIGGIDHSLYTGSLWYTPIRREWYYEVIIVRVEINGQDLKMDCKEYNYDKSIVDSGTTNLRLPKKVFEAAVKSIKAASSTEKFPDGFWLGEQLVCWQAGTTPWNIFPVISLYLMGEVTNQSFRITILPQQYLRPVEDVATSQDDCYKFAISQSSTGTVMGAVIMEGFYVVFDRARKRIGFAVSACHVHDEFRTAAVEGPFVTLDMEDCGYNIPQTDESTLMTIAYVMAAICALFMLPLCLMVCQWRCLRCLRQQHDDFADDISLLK

Data on three molecules can be found in patent US10208087B2, “Peptides” (Hoffmann-La Roche Inc., priority 2014, dated 2019).

The assay concerns the target T1, BACE1 (Homo sapiens, UniProt P56817).
T1 construct: Human HEK293 cells which are stably transfected with a vector expressing a cDNA of the human APP wt gene (APP695); endogenous in cells; host or cells: HEK293 cells stably transfected with human APP695 wt
Nature of the assay: Cellular Aβ-lowering Assay. Type of assay: cell-based. As to the method:
The compounds were investigated in accordance with the test given hereinafter. Cellular Aβ-lowering Assay: Human HEK293 cells which are stably transfected with a vector expressing a cDNA of the human APP wt gene (APP695) were used to assess the potency of the compounds in a cellular assay. […] After blocking of non-specific binding sites with e.g. 1% BSA and washing, the culture supernatants were added in suitable dilutions together with a horseradish peroxidase-coupled Aβ detection antibody (e.g., antibody 4G8, Senetek, Maryland Heights, Mo.) and incubated for 5 to 7 hrs. Subsequently the wells of the microtiter plate were washed extensively with Tris-buffered saline containing 0.05% Tween 20 and the assay was developed with tetramethylbenzidine/H2O2 in citric acid buffer. After stopping the reaction with one volume 1 N H2SO4 the reaction was measured in an ELISA reader at 450 nm wavelength. The concentrations of Aβ in the culture supernatants were calculated from a standard curve obtained with known amounts of pure Aβ peptide.
Molecule `CCCCCCCCCCCCCCCC(=O)NCCCC[C@H](NC(=O)[C@H](Cc1ccccc1)NC(=O)[C@H](CCC(=O)O)NC(=O)[C@H](C)NC(=O)[C@@H](NC(=O)C[C@H](O)[C@H](CC(C)C)NC(=O)[C@H](CC(N)=O)NC(=O)[C@@H](NC(=O)[C@H](CCC(=O)O)NC(=O)CNC(=O)CNC(=O)CNC(=O)[C@H](CC(C)C)NC(=O)[C@@H]1CCCN1C(=O)[C@@H](NC(=O)[C@H](Cc1ccccc1)NC(=O)[C@H](Cc1ccc(O)cc1)NC(=O)[C@@H]1CCCN1C(=O)[C@@H](N)Cc1ccc(O)cc1)[C@@H](C)CC)C(C)C)C(C)C)C(N)=O` [Example 1, Tyr-Pro-Tyr-Phe-Ile-Pro-Leu-Gly-Gly-Gly-Glu-Val-Asn-Sta-Val-Ala-Glu-Phe-Lys(Palmityl)-NH2 x TFA] registered an IC50 of 120 nM.

In the case of `CCCCCCCCCCCCCCCC(=O)NCCCC[C@H](NC(=O)[C@H](Cc1ccccc1)NC(=O)[C@H](CCC(=O)O)NC(=O)[C@H](C)NC(=O)[C@@H](NC(=O)C[C@H](O)[C@H](CC(C)C)NC(=O)[C@H](CC(N)=O)NC(=O)[C@@H](NC(=O)[C@H](CCC(=O)O)NC(=O)CNC(=O)CNC(=O)[C@H](C)NC(=O)[C@H](CC(C)C)NC(=O)[C@@H]1CCCN1C(=O)[C@@H](NC(=O)[C@H](Cc1ccccc1)NC(=O)[C@H](Cc1ccc(O)cc1)NC(=O)[C@@H]1CCCN1C(=O)[C@@H](N)Cc1ccc(O)cc1)[C@@H](C)CC)C(C)C)C(C)C)C(N)=O` [Example 2, Tyr-Pro-Tyr-Phe-Ile-Pro-Leu-Ala-Gly-Gly-Glu-Val-Asn-Sta-Val-Ala-Glu-Phe-Lys(Palmityl)-NH2 x TFA], it took 53 nM to reach half-maximal inhibition (IC50).

For `CCCCCCCCCCCCCCCC(=O)NCCCC[C@H](NC(=O)[C@H](Cc1ccccc1)NC(=O)[C@H](CCC(=O)O)NC(=O)[C@H](C)NC(=O)[C@@H](NC(=O)C[C@H](O)[C@H](CC(C)C)NC(=O)[C@H](CC(N)=O)NC(=O)[C@@H](NC(=O)[C@H](CCC(=O)O)NC(=O)[C@H](CO)NC(=O)CNC(=O)CNC(=O)[C@H](CC(C)C)NC(=O)[C@@H]1CCCN1C(=O)[C@@H](NC(=O)[C@H](Cc1ccccc1)NC(=O)[C@H](Cc1ccc(O)cc1)NC(=O)[C@@H]1CCCN1C(=O)[C@@H](N)Cc1ccc(O)cc1)[C@@H](C)CC)C(C)C)C(C)C)C(N)=O` [Example 10, Tyr-Pro-Tyr-Phe-Ile-Pro-Leu-Gly-Gly-Ser-Glu-Val-Asn-Sta-Val-Ala-Glu-Phe-Lys(Palmityl)-NH2 x TFA], 53 nM corresponded to half-maximal inhibition (IC50).
